The target in one data set is Wee1 (Homo sapiens, UniProt P30291). Nature of the data set: In vitro enzymatic inhibitory activity, Wee1 kinase (Eurofins, [γ-33P]-ATP filter assay). The note with it: read-out: Wee1 (IC50 nM); 10 μM [γ-33P]-ATP, 40 min at room temperature. The class given is biochemical.
The subject of data set [1] is human colon cancer LoVo cell subcutaneous xenograft tumor. Description: In vivo pharmacodynamic study, LoVo subcutaneous xenograft tumor model. Particulars: 40 mg/kg twice daily, after administration for 16 days.
Data set [2] in a line: Pharmacokinetic evaluation in plasma after single intravenous and single oral administration. Particulars: female Balb/c Nude mice.
The next data set concerns MDR1-MDCK II cells. Nature of the data set: In vitro permeability test in MDR1-MDCK II cells (bidirectional transport). The note with it: 2 μM, 150 minutes.
Where [3] appears, read: plasma, 1 mg/kg intravenous, 10 mg/kg oral study.

Chains of the proteins cited; added tags and fusions are not shown.
UniProt P30291, whole entry: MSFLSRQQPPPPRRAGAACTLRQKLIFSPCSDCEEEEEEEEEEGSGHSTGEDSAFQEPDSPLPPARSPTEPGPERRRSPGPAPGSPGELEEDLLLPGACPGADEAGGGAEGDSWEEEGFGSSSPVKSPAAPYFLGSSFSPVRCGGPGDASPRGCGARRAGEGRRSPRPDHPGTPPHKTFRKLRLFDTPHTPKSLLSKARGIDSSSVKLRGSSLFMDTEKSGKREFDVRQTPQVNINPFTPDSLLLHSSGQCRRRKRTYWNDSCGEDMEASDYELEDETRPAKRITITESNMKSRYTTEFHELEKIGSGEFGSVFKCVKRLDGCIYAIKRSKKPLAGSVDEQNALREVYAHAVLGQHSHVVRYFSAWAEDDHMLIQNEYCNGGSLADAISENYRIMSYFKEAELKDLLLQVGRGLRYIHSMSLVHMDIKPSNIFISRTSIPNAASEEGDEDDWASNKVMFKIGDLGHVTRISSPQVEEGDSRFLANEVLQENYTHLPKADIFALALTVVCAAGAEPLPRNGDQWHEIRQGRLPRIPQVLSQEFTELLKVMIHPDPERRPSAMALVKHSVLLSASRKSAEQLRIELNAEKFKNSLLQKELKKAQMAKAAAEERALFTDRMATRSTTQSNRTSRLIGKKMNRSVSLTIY

SMILES strings stand for the structures.

What is called IC50 is the concentration that inhibits the measured activity by half. Regarding `CN1CCN(c2ccc(Nc3ncc4c(=O)n5n(c4n3)-c3cccc(n3)C(C)(O)CCCCC5)cc2)CC1` (single isomer, unassigned), the IC50 at Wee1 worked out at 93 nM.
The same measure, in the same setting: the result for `CN1CCN(c2ccc(Nc3ncc4c(=O)n5n(c4n3)-c3cccc(n3)C(O)CC/C=C\C5)cc2)CC1` (single isomer, unassigned) reads 92 nM.
Turning to `CN1CCN(c2ccc(Nc3ncc4c(=O)n5n(c4n3)-c3cccc(n3)C(C)(O)CC/C=C\C5)cc2)CC1` (single isomer, unassigned) [Compound 1], the IC50 on Wee1 came to 58 nM. The “TGI (%)” value in data set [1] is recorded as 48.67%. Also, in data set [2] (setting [3]), the Clearance rate amounted to 46.7 mL/min/kg, the “Concentration integral AUC” value was 5.166 µM·h and the “Half-life T1/2” value is 1.3 h. For the same molecule, in data set [2] (10 mg/kg by gavage vs 1 mg/kg intravenous), the “Bioavailability F” value was found to be 74.6%. In the data set on MDR1-MDCK II cells, the Efflux ratio worked out at 4.19. In addition, the “Penetration rate A to B” value with MDR1-MDCK II cells (A to B) is 4.76 10^−6 cm/s. The “Penetration rate B to A” value in the data set on MDR1-MDCK II cells (B to A) is 19.94 10^−6 cm/s.
